Laboratory results: patent publication US10219528B2 (Zinpro Corporation, priority 2016, dated 2019)
Read-outs that look alike come from different tables or passages of the source. Each block holds one substance with its values, some of them ahead of it.

Tests used:
[1] = cattle calves, 120 mg folic acid source per day for 14 days, comparison with no folic acid control group (FIG. 5)
[2] = Solubility test of folate precipitates suspended in water at pH 7.0, filtered, insoluble solid weighed; type: physicochemical
From the text: In the parent application is was noticed that when soluble metal salts were mixed with folic acid there would be a precipitate forming after the addition of the metal salt. This precipitate was isolated and its solubility measured. According to the following procedure: The precipitates were suspended in water and the pH was adjusted to 7.0 with dilute HCl. […] The solids were dried and weighed to determine the mass of insoluble product. Very similar molar amounts of folic acid are used in this procedure.

[3] = in vivo
From the text: The animals were separated into groups and housed in a barn with access to a pasture. The dosing regime was as follows. […] The sheep were fed the test feeds for fourteen (14) days.
Example 22 is a sheep study using the protocol of Example 20 but with the Mn and iron mixtures of Example 5 and 7, respectively. […] In this test the ewes were fed the concentrate metal folate mixture dried without any carrier but mixed on ground corn for feeding.
The liquid mixtures were then sprayed directly on ground corn.

blood serum folic acid change [1]: changed significantly for the positive
Substance: Copper Folate Mixture [Example 3]

Substance: Copper folate
Insoluble Mass [2]: 4.09 g | Insoluble % ([2]; pH 7): 98%

Substance: Manganese Folate Mixture [Example 25]
serum results (effectiveness) [3]: effectiveness can be achieved without a carrier

Substance: Manganese folate
Insoluble Mass ([2]; suspended in 100 mL water, pH adjusted to 7.0, stirred, filtered, solid dried and weighed, about 3 g folate equivalents (6.8 mmols)): 3.64 g | Insoluble % ([2]; suspended in water at pH 7.0, stirred, filtered, solid dried and weighed): 98% | Insoluble % ([2]; suspended in water at pH 7.0, stirred, filtered, solid dried and weighed, listed as Manganese folate): 98%

Substance: Zinc Folate Mixture [Example 24]
serum results (effectiveness) [3]: effectiveness can be achieved without a carrier

Substance: Zinc folate
Insoluble Mass [2]: 3.70 g
